Data taken from US6066642A, “Dihydropyridine-, pyridine-, benzopyran-4-one- and triazoloquinazoline derivative, their preparation and their use as adenosine receptor antagonists” (priority 1998, dated 2000).
One block for each compound: values may come before it.

By UniProt entry, the sequences of proteins in these tests, tags left out.
UniProt P30543, whole entry: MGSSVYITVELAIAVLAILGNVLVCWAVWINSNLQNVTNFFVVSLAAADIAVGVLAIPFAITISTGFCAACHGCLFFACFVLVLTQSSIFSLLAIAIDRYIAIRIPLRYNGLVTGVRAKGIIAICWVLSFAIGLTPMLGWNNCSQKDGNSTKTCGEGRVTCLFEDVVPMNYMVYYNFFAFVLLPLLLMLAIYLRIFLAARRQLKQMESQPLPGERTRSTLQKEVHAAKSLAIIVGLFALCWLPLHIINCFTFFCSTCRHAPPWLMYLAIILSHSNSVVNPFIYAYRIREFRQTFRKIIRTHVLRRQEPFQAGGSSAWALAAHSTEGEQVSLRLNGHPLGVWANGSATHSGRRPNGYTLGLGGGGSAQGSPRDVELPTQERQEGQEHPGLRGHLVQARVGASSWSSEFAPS
UniProt P25099, whole entry: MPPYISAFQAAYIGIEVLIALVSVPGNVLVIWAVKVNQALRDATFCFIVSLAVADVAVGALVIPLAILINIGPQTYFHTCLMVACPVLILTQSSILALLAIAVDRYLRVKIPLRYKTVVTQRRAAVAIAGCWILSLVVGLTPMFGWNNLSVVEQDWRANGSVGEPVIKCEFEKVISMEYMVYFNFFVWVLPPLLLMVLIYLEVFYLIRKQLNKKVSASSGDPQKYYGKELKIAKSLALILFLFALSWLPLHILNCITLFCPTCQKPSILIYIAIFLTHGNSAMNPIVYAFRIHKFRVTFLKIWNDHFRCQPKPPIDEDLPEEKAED

Columns and labels:
A2a receptors = target: T1, A2a receptors (Rattus norvegicus, UniProt P30543); experiment: radioligand binding, displacement of specific [3H]CGS 21680 binding in rat striatal membranes
T1 construct: Displacement of specific [^3 H]; from tissue; host or cells: rat striatal membranes

A1 receptors = A1 receptors (Rattus norvegicus, UniProt P25099); format: binding; conditions: Table 3; [3H]PIA, rat brain membranes; read-out: Ki rA1

SMILES: CCOC(=O)C1=C(C)NC(c2ccccc2)=C(C(=O)OCc2ccc([N+](=O)[O-])cc2)C1C#Cc1ccccc1 (racemic) [Compound 122g]
inhibition at 100 µM (A2a receptors; read-out: displacement of specific binding rA2A): < 10%

Ki (A2a receptors; Table 9, [3H]CGS 21680, rat striatal membranes, read-out: Ki rA2A): 44.3 µM
SMILES: COCCOC(=O)C1=C(C)NC(C)=C(C(=O)OC(C)C)C1c1cccc([N+](=O)[O-])c1 (stereo not drawn) [Compound 64, reference compound]

SMILES: CCOc1ccc(-c2oc3cc(OCC)cc(OCC)c3c(=O)c2OCC)c(OCC)c1 [Compound 8, 2',3,4',5,7-Pentaethoxyflavone]
Ki (A1 receptors): 32.3 ± 9.1 µM
